Measured values reported in ChEMBL document CHEMBL4476868, “Benzimidazole derivatives and uses thereof” (2017).
This is a selection: effects in other tests are not listed, and their absence says nothing.

Chains of the proteins cited; added tags and fusions are not shown.
UniProt Q9NR19, whole entry: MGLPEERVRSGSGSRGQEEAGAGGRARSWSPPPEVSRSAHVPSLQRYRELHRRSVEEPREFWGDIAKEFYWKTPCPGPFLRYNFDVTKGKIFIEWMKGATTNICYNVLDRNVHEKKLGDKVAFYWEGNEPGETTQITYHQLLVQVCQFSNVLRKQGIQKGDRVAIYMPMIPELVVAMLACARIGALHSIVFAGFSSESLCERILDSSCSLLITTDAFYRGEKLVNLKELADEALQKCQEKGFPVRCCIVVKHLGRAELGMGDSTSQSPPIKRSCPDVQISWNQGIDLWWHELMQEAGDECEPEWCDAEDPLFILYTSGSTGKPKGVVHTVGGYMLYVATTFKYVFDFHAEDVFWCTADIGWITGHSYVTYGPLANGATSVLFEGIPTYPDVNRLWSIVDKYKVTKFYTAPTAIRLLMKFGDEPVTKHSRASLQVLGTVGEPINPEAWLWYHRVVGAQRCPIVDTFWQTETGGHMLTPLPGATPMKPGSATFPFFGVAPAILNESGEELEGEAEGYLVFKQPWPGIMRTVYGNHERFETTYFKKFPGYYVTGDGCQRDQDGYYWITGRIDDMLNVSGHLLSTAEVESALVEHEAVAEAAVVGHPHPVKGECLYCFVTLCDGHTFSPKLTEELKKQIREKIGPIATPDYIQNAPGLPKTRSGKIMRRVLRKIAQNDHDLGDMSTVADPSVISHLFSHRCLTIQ

The compounds below were run against Acetyl-coenzyme A synthetase, cytoplasmic (Homo sapiens, UniProt Q9NR19) (assay: Inhibition of N-terminal 6x-histidine tagged human ACSS2 expressed in insect cells assessed as reduction in pyrophosphate production using CoA and ATP incubated for 30 mins by pyrophosphatase coupled enzymatic assay).

SMILES | IC50 [nM]
C[C@@H](O)CNC(=O)c1ccc2nc(C(O)(c3ccccc3)c3ccccc3)n(CCN)c2c1 | 250 to 1000
CNCCn1c(C(O)(c2ccccc2)c2ccccc2)nc2ccc(C(=O)NC[C@@H](C)O)cc21 | > 1000
C[C@@H](O)CNC(=O)c1ccc2nc(C(O)(c3ccccc3)c3ccccc3)n(CCN(C)C)c2c1 | 250 to 1000
